Only a part is listed here, and it is no random draw. Some tests of the compounds listed are not included; inactive here does not mean inactive elsewhere. Activity calls are given as the source filed them.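 How the source made its calls: active means viability gain under doxorubicin at or above a set limit, the compound median plus 3 SD (cut at about 4.7% in these data); inactive means the rest.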

This experiment in a line: protection of MRP-1-high cells against doxorubicin toxicity – H69AR cells, CellTiter-Glo, MRP-1 activator project, primary screen (AID 799).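 Further: MRP-1 overexpressing cells given doxorubicin 25 µM after compound pretreatment; 18-22 h compound pretreatment then 72 h with doxorubicin before readout; 0% = doxorubicin-only wells and 100% = vehicle-treated cells without doxorubicin.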 Conditions: viability rescue, at 10 µM, hits give high values. (In ATP-based viability assays light output follows the ATP content of the culture.)
Consider `CN(C)C1CCCC1OC(=O)C(O)(c1ccccc1)c1ccccc1` (stereo not given), for which the viability increase is inactive: -0.14%.
`CCN1CCCC(OC(=O)C2(O)c3ccccc3C=Cc3ccccc32)C1` (stereo not given): the viability increase is inactive: -2.16%.
With `CC(C)N1C(=O)CC2(CCN(CCOC(=O)C(O)(c3ccccc3)c3ccccc3)CC2)C1=O` the figure was inactive: -1.66%; with `O=C(OC1CN2CCC1CC2)C(CO)(c1ccccc1)c1ccccc1` (stereo not given), inactive: -0.24%; with `CN(C)c1cccc(C(=O)NCC2(N(C)C)CCCCC2)c1`, inactive: -2.14%.

These data come from PubChem BioAssay AID799 (SRMLSC, 2007).
